Values quoted from earlier work, collected in patent publication US20020041897A1, “Compositions for sustained release of antineoplastic taxanes, and methods of making and using the same” (priority 2000, published 2002).

Details: dogs; large volume single dose without taxol; cited from earlier work

For “polyoxyethylated castor oil [CREMOPHOR EL]”, the toxic effects is listed as “vasodilation, labored breathing, lethargy, hypotension and death”.
